Publication PMC7684313, “In vitro and in vivo pharmacological activity of minor cannabinoids isolated from Cannabis sativa” (Scientific Reports, 2020)
pEC50: −log10 of the molar value.

Amino acid sequences for entries named in this document (tags omitted).
UniProt P34972, whole entry: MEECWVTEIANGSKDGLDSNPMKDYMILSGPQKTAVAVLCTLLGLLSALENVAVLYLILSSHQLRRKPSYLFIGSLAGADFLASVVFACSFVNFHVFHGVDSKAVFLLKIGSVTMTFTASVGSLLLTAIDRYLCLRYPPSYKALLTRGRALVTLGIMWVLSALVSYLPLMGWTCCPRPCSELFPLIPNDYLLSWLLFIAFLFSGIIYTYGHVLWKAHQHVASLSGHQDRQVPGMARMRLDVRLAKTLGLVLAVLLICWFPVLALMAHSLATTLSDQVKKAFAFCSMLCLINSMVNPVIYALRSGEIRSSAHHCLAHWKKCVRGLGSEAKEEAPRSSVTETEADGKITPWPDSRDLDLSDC

Legend:
[1] = target: T1, hCB2R (Homo sapiens, UniProt P34972); assay: hCB2R-dependent inhibition of FSK-stimulated cAMP accumulation (HitHunter CHO cells); type: cell-based; design: expressed in transfected cells; membranes; settings: 90 min, 95% CI in brackets
[2] = target: T1, hCB2R; assay: hCB2R-dependent recruitment of βarrestin2 (PathHunter CHO cells); type: cell-based; design: expressed in transfected cells; membranes; settings: 90 min, 95% CI in brackets

C=C(C)[C@@H]1CCC(C)=C[C@H]1c1c(O)cc(CCCCC)cc1O [CBD, cannabidiol, reference compound]
pEC50 [1]: < 5.00
pEC50 [2]: 7.24
